Test results: patent US7320863B2 (Albert Einstein College of Medicine of Yeshiva University, priority 1996, dated 2008)

Target: T1, rat sodium/iodide symporter (Rattus norvegicus, UniProt Q63008)
T1 sequence (Q63008 1-618): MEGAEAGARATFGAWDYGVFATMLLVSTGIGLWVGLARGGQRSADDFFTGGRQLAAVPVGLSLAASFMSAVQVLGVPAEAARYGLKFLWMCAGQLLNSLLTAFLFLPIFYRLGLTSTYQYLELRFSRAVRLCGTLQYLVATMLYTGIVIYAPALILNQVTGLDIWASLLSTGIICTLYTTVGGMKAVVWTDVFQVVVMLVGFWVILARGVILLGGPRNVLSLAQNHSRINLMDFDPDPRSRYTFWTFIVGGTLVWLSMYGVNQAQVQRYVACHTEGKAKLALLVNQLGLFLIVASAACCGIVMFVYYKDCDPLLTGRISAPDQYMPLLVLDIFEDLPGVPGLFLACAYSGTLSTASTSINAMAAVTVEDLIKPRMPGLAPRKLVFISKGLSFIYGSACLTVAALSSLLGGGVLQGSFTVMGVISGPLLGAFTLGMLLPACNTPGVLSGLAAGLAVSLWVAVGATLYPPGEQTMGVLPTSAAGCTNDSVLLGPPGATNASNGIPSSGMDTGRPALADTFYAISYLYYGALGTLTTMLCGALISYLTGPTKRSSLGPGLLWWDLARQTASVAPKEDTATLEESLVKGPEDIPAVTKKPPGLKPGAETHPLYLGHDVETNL
Settings: approximately 90 min saturation point, 50 μM iodide in transport solution, 60 h after injection

iodide accumulation at saturation point: ~800 pmol of iodide/oocyte
Structure (SMILES): I [iodide]
